Values of other authors, collected in patent publication US12648951B2, “Methods of treating castration-resistant prostate cancer with glucocorticoid receptor antagonists, androgen deprivation therapy and anti-androgen receptor therapy” (University of Chicago, priority 2012, dated 2026).

System: VCaP cells which over express androgen receptors
Settings: cited from earlier work

Structure (SMILES): CNC(=O)c1ccc(N2C(=S)N(c3ccc(C#N)c(C(F)(F)F)c3)C(=O)C2(C)C)cc1F [MDV3100]
- apoptosis: induced apoptosis
